This note sets out measurements from publication PMC6033010, “A Targeted LC‐MS Strategy for Low‐Abundant HLA Class‐I‐Presented Peptide Detection Identifies Novel Human Papillomavirus T‐Cell Epitopes” (Proteomics, 2018).

SMILES strings stand for the structures. Where two headings read alike, the source gives them in different places.

The target of this assay is T1, HLA‐A2 (Homo sapiens, UniProt P04439, D140Y/D185E/D98H/E176V/E277Q/G131W/G231S/I119V/I121R/I166T/I218V/L300P/L318F/N151K/N90K/P208A/P217A/Q86G/Q94H/R138H/R169H/T345S).
T1 construct: host or cells: BSM cells (HLA-A2+, HPV16-negative suspension cell line)
The experiment in a line: In vitro competition-based cellular binding assay. On the procedure: In Vitro Competition Based Binding Assays: In vitro competition‐based binding assays were performed as described in ref. 30. In brief, BSM cells were treated with citric acid buffer to strip off naturally presented peptides. Cells were incubated overnight at 4 °C with β2M, a constant concentration (150 nM) of fluorescein‐labeled HLA‐A2‐binding reference peptide (FLPSDC(Fl)FPSV), and six different concentrations (0.78 –100 μM) of the respective investigated non‐labeled peptide, competing for HLA‐binding. Fluorescence was measured by flow cytometry and data processed with FlowJo 10 (TreeStar, Ashland, OR, USA). A logistic four‐parametric non‐linear regression calculation using SigmaPlot 13 (Systat‐Software, San José, CA, USA) was conducted to calculate binding affinity (IC50). […] The assay was performed with at least three biological replicates for binders and two for non‐binders.

By IC50 is commonly meant the concentration at which inhibition is half-maximal.

Consider `CSCC[C@H](NC(=O)[C@@H](N)Cc1ccc(O)cc1)C(=O)N[C@@H](CC(C)C)C(=O)N[C@@H](CC(=O)O)C(=O)N[C@@H](CC(C)C)C(=O)N[C@@H](CCC(N)=O)C(=O)N1CCC[C@H]1C(=O)N[C@@H](CCC(=O)O)C(=O)N[C@H](C(=O)N[C@H](C(=O)O)[C@@H](C)O)[C@@H](C)O` [E7_11–20], for which the IC50 (acid-stripped BSM cells, β2M, 150 nM fluorescein-labeled reference peptide FLPSDC(Fl)FPSV, test peptide 0.78–100 μM, overnight 4 °C, flow cytometry, mean of at least three experimental replicates, read-out: Experimental binding affinity [IC50(μM)]) was found to be 2.19 µM.

`CSCC[C@H](NC(=O)[C@H](Cc1ccc(O)cc1)NC(=O)[C@H](CCC(=O)O)NC(=O)[C@H](Cc1cnc[nH]1)NC(=O)[C@H](CC(C)C)NC(=O)[C@@H](N)[C@@H](C)O)C(=O)N[C@@H](CC(C)C)C(=O)N[C@@H](CC(=O)O)C(=O)N[C@@H](CC(C)C)C(=O)O` [E7_7–15]: the IC50 worked out at 2.68 µM.
